Measurements published in ChEMBL document CHEMBL1131488, “Dihydropyrancarboxamides related to zanamivir: a new series of inhibitors of influenza virus sialidases. 1. Discovery, synthesis, biological activity, and structure-activity relationships of 4-guanidino- and 4-amino-4H-pyran-6-carboxamides” (J Med Chem, 1998).

Chains of the proteins cited; added tags and fusions are not shown.
UniProt P03468, whole entry: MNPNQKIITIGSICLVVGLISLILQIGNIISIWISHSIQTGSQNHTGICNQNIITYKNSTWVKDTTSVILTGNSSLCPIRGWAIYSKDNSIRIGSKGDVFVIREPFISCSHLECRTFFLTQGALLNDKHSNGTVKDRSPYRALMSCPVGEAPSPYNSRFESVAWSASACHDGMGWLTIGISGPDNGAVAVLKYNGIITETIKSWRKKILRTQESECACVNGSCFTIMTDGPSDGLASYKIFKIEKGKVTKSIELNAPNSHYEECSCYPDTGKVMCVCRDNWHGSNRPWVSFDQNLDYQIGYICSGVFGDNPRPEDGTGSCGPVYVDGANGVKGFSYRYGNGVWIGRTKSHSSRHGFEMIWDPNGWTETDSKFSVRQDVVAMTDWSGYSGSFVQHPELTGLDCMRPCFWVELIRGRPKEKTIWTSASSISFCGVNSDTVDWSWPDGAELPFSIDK

Assays:
[1] = biological target: Neuraminidase (Influenza A virus (A/Puerto Rico/8/1934(H1N1)), UniProt P03468)
[2] = biological target: Neuraminidase (Influenza A virus (A/Puerto Rico/8/1934(H1N1)), UniProt P03468); remark: listed apart in the source
[3] = biological target: Neuraminidase (Influenza A virus (A/Puerto Rico/8/1934(H1N1)), UniProt P03468); remark: listed apart in the source
[4] = biological target: Neuraminidase (Influenza A virus (A/Puerto Rico/8/1934(H1N1)), UniProt P03468); remark: listed apart in the source
[5] = biological target: Neuraminidase (Influenza A virus (A/Puerto Rico/8/1934(H1N1)), UniProt P03468); test: Inhibition of sialidase (Flu A, 5 nM)
[6] = biological target: Neuraminidase (Influenza A virus (A/Puerto Rico/8/1934(H1N1)), UniProt P03468); remark: listed apart in the source
[7] = biological target: Neuraminidase (Influenza A virus (A/Puerto Rico/8/1934(H1N1)), UniProt P03468); remark: listed apart in the source
[8] = biological target: Neuraminidase (Influenza A virus (A/Puerto Rico/8/1934(H1N1)), UniProt P03468); test: Inhibition of influenza A virus sialidase activity

Row | SMILES | IC50 [1] [nM] | IC50 [2] [nM] | IC50 [3] [nM] | IC50 [4] [nM] | IC50 [5] [nM] | IC50 [6] [nM] | IC50 [7] [nM] | IC50 [8] [nM]
1 | CC(=O)N[C@@H]1[C@@H](N)C=C(C(=O)O)O[C@H]1C(=O)N1C(C)CCC1C (some centres not stated) | 6 | 5 | 35 | 110 | 6 | 1600 | 120 | –
2 | CC(=O)N[C@H]1[C@@H](C(=O)N2C(C)CCC2C)OC(C(=O)O)=C[C@@H]1N (some centres not stated) | – | – | – | – | – | – | – | 110
3 | CCCCN(CCCC)C(=O)[C@@H]1OC(C(=O)O)=C[C@H](N)[C@H]1NC(C)=O | 450 | – | 100 | – | – | 11000 | 5900 | –
